Target: T1, collagen type I from rat tail collagen (Corning) (rat, UniProt P02454 152-1207; P02466 86-1125)
T1 construct: collagen type I alpha 1 chain, rat tail; collagen type I alpha 2 chain, rat tail; Positive control of the ELISA; also called collagen I; source: bought: Corning (rat tail); copies: 2 + 1
Assay: ELISA; collagen model peptides or collagen I coated on Nunc MaxiSorp (500 ng/well), blocked with 1% BSA in TBS; soluble HSP47 in a 1:4 dilution series from 8 or 10 μM; detected by anti-His-HRP; triplicates, four-parameter logistic fit
Details: both partners purified

By UniProt entry, the sequences of proteins in these tests, tags left out. Residues count along the entry.
UniProt P02454, 152-1207, chain 1 of 2: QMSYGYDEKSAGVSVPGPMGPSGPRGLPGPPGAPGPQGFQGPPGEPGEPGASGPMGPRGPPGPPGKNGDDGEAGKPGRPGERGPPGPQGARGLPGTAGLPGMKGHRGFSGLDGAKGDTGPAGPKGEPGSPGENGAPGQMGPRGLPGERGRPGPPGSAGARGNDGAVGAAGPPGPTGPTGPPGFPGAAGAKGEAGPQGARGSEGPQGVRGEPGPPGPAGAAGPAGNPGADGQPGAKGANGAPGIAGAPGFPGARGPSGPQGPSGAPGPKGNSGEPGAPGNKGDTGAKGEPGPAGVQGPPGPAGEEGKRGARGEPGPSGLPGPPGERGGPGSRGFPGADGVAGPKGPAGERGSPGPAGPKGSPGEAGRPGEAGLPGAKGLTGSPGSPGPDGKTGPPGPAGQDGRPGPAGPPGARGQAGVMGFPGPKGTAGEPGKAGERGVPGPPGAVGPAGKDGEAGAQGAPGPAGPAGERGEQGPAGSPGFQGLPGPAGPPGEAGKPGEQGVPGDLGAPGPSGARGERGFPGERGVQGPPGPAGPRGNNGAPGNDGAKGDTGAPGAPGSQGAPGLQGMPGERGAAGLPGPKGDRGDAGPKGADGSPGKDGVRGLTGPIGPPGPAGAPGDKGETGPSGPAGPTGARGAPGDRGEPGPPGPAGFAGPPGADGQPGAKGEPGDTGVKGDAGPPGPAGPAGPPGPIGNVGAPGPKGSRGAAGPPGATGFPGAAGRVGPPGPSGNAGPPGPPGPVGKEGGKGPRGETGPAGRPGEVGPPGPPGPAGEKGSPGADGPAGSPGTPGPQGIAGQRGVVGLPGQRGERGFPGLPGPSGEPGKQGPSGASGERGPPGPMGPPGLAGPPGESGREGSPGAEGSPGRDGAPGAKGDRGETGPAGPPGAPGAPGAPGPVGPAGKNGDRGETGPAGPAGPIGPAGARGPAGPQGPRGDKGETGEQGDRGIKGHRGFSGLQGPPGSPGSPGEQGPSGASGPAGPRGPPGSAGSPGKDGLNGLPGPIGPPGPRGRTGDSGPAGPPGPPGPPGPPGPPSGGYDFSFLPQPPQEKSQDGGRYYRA
collagen type I from rat tail collagen (Corning), UniProt P02466, 86-1125, chain 2 of 2: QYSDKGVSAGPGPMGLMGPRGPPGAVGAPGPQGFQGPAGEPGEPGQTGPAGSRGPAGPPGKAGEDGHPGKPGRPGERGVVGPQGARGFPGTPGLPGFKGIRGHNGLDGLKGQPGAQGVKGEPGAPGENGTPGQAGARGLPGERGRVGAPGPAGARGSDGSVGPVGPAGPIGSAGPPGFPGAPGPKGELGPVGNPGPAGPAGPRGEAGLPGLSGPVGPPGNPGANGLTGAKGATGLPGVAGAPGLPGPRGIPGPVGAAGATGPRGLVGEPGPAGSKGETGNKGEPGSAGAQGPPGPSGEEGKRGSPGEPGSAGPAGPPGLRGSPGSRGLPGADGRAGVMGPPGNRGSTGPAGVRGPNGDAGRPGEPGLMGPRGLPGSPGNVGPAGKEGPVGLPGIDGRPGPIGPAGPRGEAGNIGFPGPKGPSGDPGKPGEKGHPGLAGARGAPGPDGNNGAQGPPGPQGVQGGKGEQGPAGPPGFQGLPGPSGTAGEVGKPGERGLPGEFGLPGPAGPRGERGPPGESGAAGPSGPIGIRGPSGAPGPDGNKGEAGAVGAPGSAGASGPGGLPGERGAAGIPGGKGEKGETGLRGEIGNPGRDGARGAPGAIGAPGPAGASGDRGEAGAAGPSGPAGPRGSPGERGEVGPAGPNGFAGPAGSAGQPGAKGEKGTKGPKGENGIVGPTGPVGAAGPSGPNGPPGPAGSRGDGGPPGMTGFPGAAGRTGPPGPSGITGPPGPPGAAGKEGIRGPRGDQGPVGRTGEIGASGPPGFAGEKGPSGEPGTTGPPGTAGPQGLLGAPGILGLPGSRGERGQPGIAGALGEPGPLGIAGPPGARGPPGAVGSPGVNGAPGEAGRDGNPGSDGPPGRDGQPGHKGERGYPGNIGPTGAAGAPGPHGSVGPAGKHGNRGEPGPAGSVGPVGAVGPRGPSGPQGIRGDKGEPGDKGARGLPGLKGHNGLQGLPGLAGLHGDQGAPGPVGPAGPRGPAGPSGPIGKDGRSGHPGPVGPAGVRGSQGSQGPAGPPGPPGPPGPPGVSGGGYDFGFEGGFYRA

B1: HSP47 (heat shock protein 47), Canis lupus, residues 36-418 with C-terminal hexahistidine tag (natural protein, UniProt C7C419 36-418, looked up)
chain: LSPKAATLAERSAGLAFSLYQAMAKDQAVENILLSPVVVASSLGLVSLGGKATTASQAKAVLSAEQLRDEEVHAGLGELLRSLSNSTARNVTWKLGSRLYGPSSVSFAEDFVRSSKQHYNCEHSKINFRDKRSALQSINEWAAQTTDGKLPEVTKDVERTDGALLVNAMFFKPHWDEKFHHKMVDNRGFMVTRSYTVGVTMMHRTGLYNYYDDEKEKLQIVEMPLAHKLSSLIILMPHHVEPLERLEKLLTKEQLKIWMGKMQKKAVAISLPKGVVEVTHDLQKHLAGLGLTEAIDKNKADLSRMSGKKDLYLASVFHATAFEWDTEGNPFDQDIYGREELRSPKLFYADHPFIFLVRDTQSGSLLFIGRLVRPKGDKMRDEL
notes: HSP47 (serpin H1), Canis lupus, codon-optimized construct in pET22-(b), residues 36LSP...RDEL418; Construct Mr 44,099 Da; Conjugated with 5 nm colloidal gold for the electron microscopy; also called wild-type HSP47; source: E. coli BL21 (DE)3, purified (Ni-NTA, ammonium sulfate precipitation of contaminants, Superdex 200); not shown: His6, C-terminal, kept
Kd: 116 ± 7.6 nM

From publication PMC8626583, “Collagen’s primary structure determines collagen:HSP47 complex stoichiometry” (The Journal of Biological Chemistry, 2021)
